Where two headings read alike, the source gives them in different places.
What was measured:
[1] = Solubility and molar ratio after lyophilization and storage; assay type: physicochemical; conditions: for solubility, conjugate stored at 0-4° C. or at room temperature: yes/no, after lyophilization
[2] = Solubility of the lyophilized conjugate in physiological solution; assay type: physicochemical
[3] = system: cellular DNA in the medulla ossium; conditions: mouse, in vivo
[4] = system: receptors of the hepatocytes specific for the proteins ending with the galactose; test: Disappearance from plasma of [14C]asialofetuine (AF) in the mouse; assay type: in vivo, mice (female Swiss); conditions: for radioactivity of plasma after injection with [14C]AF: 2 μg/g i.v. with 2 μg/g 14C AF, after 10 minutes, average ± S.E. from 10 mice
[5] = system: cellular DNA in the intestine; conditions: mouse, in vivo
[6] = Polymerization after lyophilization (polyacrylamide gel electrophoresis with sodium dodecylsulfate); assay type: physicochemical
[7] = mouse, in vivo, iv
[8] = system: hepatocytes; conditions: cited from earlier work
[9] = conjugate prepared with homologue albumin; mouse; cited from earlier work
[10] = prior method, acidic pH 5.3-5.5, cited from earlier work

Substance: conjugate 13: L51-HSA, ECDI, ara-AMP 144, carbodiimide 261, pH 7.5, 25° C., 24 hours, molar ratio 12
- solubility, conjugate stored at 0-4° C. or at room temperature [1]: yes

Substance: conjugate 5: L31-HSA, MorfoCDI, ara-AMP 144, carbodiimide 261, pH 7.5, 25° C., 24 hours, molar ratio 12
- solubility, conjugate stored at 0-4° C. or at room temperature [1]: yes

Substance: conjugate 4: L31-HSA, ECDI, ara-AMP 144, carbodiimide 130, pH 7.5, 25° C., 24 hours, molar ratio 11
- solubility, conjugate stored at 0-4° C. or at room temperature [1]: yes

Substance: conjugate 8: L31-HSA, ECDI, ara-AMP 144, carbodiimide 261, pH 8.5, 25° C., 24 hours, molar ratio 10
- solubility, conjugate stored at 0-4° C. or at room temperature [1]: yes

Substance: conjugate 12: L20-HSA, ECDI, ara-AMP 144, carbodiimide 261, pH 7.5, 25° C., 24 hours, molar ratio 11
- solubility, conjugate stored at 0-4° C. or at room temperature [1]: yes

Substance: 2: conjugate of ara-AMP with L30-HSA, carbodiimide, pH 7.5, dialized against 0.3% NaCl and lyophilized with NaCl [Example 2]
- concentration of solution of lyophilized preparation ([2]; 109 mg lyophilized preparation dissolved with 1 ml H2O, physiological solution (0.9% NaCl)): 100 mg of conjugate in 1 ml
- solubility of lyophilized preparation ([2]; in words, 109 mg with 1 ml H2O): optimum

Substance: conjugate 2: L31-HSA, ECDI, ara-AMP 288, carbodiimide 522, pH 7.5, 25° C., 24 hours, molar ratio 20
- solubility, conjugate stored at 0-4° C. or at room temperature [1]: yes

Substance: conjugate 11: L31-HSA, ECDI, ara-AMP 144, carbodiimide 261, pH 7.5, 25° C., 8 hours, molar ratio 11
- solubility, conjugate stored at 0-4° C. or at room temperature [1]: yes

Substance: conjugate 1: conjugate of ara-AMP with L31-HSA, ECDI, pH 7.5, 25° C., 24 hours, molar ratio 14
- Inhibition of the DNA synthesis % M. ossium [3]: 0%
- inhibition of DNA synthesis in the medulla ossium [3]: without causing inhibition in the other two organs
- radioactivity of plasma after injection with [14C]AF [4]: 11,275 ± 1,194 dpm/ml of plasma
- capacity of L-HSA of interacting with the hepatocyte receptors after conjugation with ara-AMP ([4]; in words): does not affect the capacity of L-HSA of interacting with the receptors of the hepatocytes
- solubility in physiological solution (0.9% NaCl) ([2]; lyophilized conjugate, maximum tested concentration): ≥ 100 mg/ml
- inhibition of DNA synthesis in the intestine [5]: without causing inhibition in the other two organs
- change of percentages of L-HSA monomer and oligomers ([6]; 4 months after the lyophilization): do not change
- polymerization after lyophilization ([6]; in words): does not undergo a polymerization after lyophilization
- molar ratio ara-AMP/L-HSA on storage ([1]; 0°-4° C. or room temperature, at least up to 4 months (maximum time tested)): do not decrease
- solubility, conjugate stored at 0-4° C. or at room temperature [1]: yes
- curve of body weight increase and of food consumption [7]: equal to that of control mice
- evident sign of toxicity [7]: does not cause any evident sign of toxicity

Substance: conjugate 7: L31-HSA, ECDI, ara-AMP 144, carbodiimide 261, pH 6.5, 25° C., 24 hours, molar ratio 11; partially precipitates during the conjugation
- solubility, conjugate stored at 0-4° C. or at room temperature [1]: no

Substance: L-SA: lactosaminated albumin which penetrates only in the hepatic parenchima cells
- cell penetration ([8]; in words): penetrates only in the hepatic parenchima cells

Substance: conjugate 9: L31-HSA, ECDI, ara-AMP 144, carbodiimide 261, pH 9.5, 25° C., 24 hours, molar ratio 5
- solubility, conjugate stored at 0-4° C. or at room temperature [1]: yes

Substance: L-SA-ara-AMP: ara AMP conjugated with lactosaminated albumin; prior method based on conjugation of activated ara-AMP in acidic environment (pH 5.3-5.5)
- immunogenicity [9]: not immunogenic
- distribution of ara-AMP after administration ([8]; mouse, in vivo): concentrated, in its pharmacologically active form in the hepatocytes
- time to become insoluble after lyophilization ([10]; 0° to 4° C.): less than one
- time to become insoluble after lyophilization ([10]; -20° C., in words): some weeks

Substance: conjugate 6: L31-HSA, ECDI, ara-AMP 144, carbodiimide 261, pH 5.5, 25° C., 24 hours, molar ratio 16
- solubility, conjugate stored at 0-4° C. or at room temperature [1]: no

Substance: conjugate 3: L31-HSA, ECDI, ara-AMP 72, carbodiimide 130, pH 7.5, 25° C., 24 hours, molar ratio 10
- solubility, conjugate stored at 0-4° C. or at room temperature [1]: yes

Substance: conjugate 10: L31-HSA, ECDI, ara-AMP 144, carbodiimide 261, pH 7.5, 35° C., 24 hours, molar ratio 9
- solubility, conjugate stored at 0-4° C. or at room temperature [1]: yes

Substance: L31 -HSA: non conjugated lactosaminated human albumin [reference compound]
- radioactivity of plasma after injection with [14C]AF [4]: 9,446 ± 1,462 dpm/ml of plasma
- inhibition of the disappearance of radioactive asialofetuine from plasma ([4]; in words, conjugate vs equal amount of non conjugated L31 HSA): competitively inhibited at the same rate
